{"source": "ChEMBL document CHEMBL1165955", "about": "“Synthesis and biological evaluation of novel (4 or 5-aryl)pyrazolyl-indoles as inhibitors of interleukin-2 inducible T-cell kinase (ITK)” (Bioorg Med Chem, 2010)", "experiment": "Selectivity ratio of IC50 for GST-tagged recombinant INSR catalytic domain to IC50 for GST-tagged full length recombinant ITK"}
{"smiles": "CC(C)CN(C)C(=O)c1ccc2cc(-c3cc(Cc4ccccc4)[nH]n3)[nH]c2c1", "values": [{"measurement": "Ratio IC50", "result": "> 178"}]}
